The text below walks through data of patent US20130045160A1, “Magnetic Nano-Composite for Contrast Agent, Intelligent Contrast Agent, Drug Delivery Agent for Simultaneous Diagnosis and Treatment, and Separation Agent for Target Substance” (Industry-Academic Coorporation Foundation, Yonsei University, priority 2006, published 2013).

The subject of this data set is NIH3T6.7 cell and MDA-MB-231 cell. Put plainly: Cytotoxicity test (degree of inhibiting cell growth, MTT agent). It is filed as cell-based.
The mark [1] stands for this setting: 4 h exposure, 72 h growth, equivalent herceptin and DOX.

“herceptin-magnetic nanocomposite enclosing DOX”: under setting [1], the “cytotoxicity compared with herceptin and DOX together” value is “higher than that of the case acted by herceptin and DOX together”; the “cytotoxicity compared with herceptin and DOX using nanoparticles” value is “much higher than that of the case that herceptin and DOX were reacted with the cells, using nanoparticles”. For the same substance, the “combined effect of treating cancer cells” value (conclusion from cytotoxicity results) is “synergistic effect of treating cancer cells selectively”.
